# This is a sample that favours compounds with a hit; in the whole collection about 13% have one here.
# G9a inh = blocks human histone lysine methyltransferase G9a. Q96KQ7. G9a H3K9 monomethylation, AlphaScreen, 2 h. Potency, µM (highest dose often 102 µM), inactives show top-dose activity, negative = inhibition, actives largely listed as inhibitors. 350,000 tested, 8.8% active. AID 504332; note: potency is the fitted concentration of half-maximal effect; % is set by controls: 0 for no effect and ±100 for the full control effect; nearly all actives have a fitted effect of over 75% in size
#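 G9a (20 nM) preincubated 15 min RT with compounds, then 500 nM biotinylated H3K9 peptide and 20 uM SAM added; 2 h RT reaction. Monomethyl-H3K9 product detected by AlphaScreen with anti-H3K9me1 antibody, streptavidin donor and anti-rabbit IgG acceptor beads.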
# miR-21 FLuc = raises the signal of a miR-21 reporter | HeLa miR-21 FLuc reporter, luciferase, 48 h | Potency, µM (doses to about 38.3 µM), without a hit: at the top dose reporter change, positive = more light | 340,000 tested, under 10 active | AID 2288; active = well fitted rising curve with a large enough effect; inconclusive = small, poorly fitted or top-dose-only effect; inactive = no such curve, though single readings can be large or run the other way;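 note: % of control where 0% means no effect; miR-21 action dims this reporter so a rising signal means less miR-21 action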
#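 Luminescence from a firefly luciferase reporter carrying a miR-21 binding site downstream, stably expressed under a CMV promoter in HeLa cells that make miR-21 endogenously, reports miRNA modulation after 48 h compound exposure up to approximately 40uM final.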
# Lamin A splicing = modulators of lamin A splicing. HeLa LMNA splicing GFP/RFP minigene ratio, 48 h. Potency, µM (highest dose often 46.1 µM), without a hit: at the top dose ratio change, negative = inhibition, most hits filed as inhibitors. 200,000 tested, 0.01% active. AID 1487; active = well fitted inhibition curve with a large enough effect in the signal ratio, with a control signal flat, not every such curve was filed as active; inconclusive = small, poorly fitted or top-dose-only effect, or effect the other way, or a change in a side signal; the % refers to the signal ratio; note: potency is the fitted concentration of half-maximal effect; % is set by controls: 0 for no effect and ±100 for the full control effect
#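 S3 HeLa cells stably expressing lamin A-EGFP splicing minigene plus DsRed2, 600 cells/well, 48 h compound exposure at 37C. Laser-scanning cytometry; analysed as GFP (500-530 nm)/RFP (575-640 nm) total intensity ratio; 0.5% DMSO vehicle.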
# JMJD2E inh = blocks human JMJD2E demethylase activity; JMJD2E catalytic domain, FDH-coupled NADH fluorescence (FDH is formaldehyde dehydrogenase); Potency, µM (highest dose often 57.1 µM), for inactives: at the top dose activity change, negative = inhibition, most hits filed as inhibitors; 230,000 tested, 1.6% active; AID 2147; active = well fitted inhibition curve with a large enough effect, not every such curve was filed as active; inconclusive = small, poorly fitted or top-dose-only effect, or another doubt; inactive = no such curve, though single readings can be large or run the other way;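 note: potency is the fitted concentration of half-maximal effect; 0% = wells with enzyme and -100% = buffer wells without enzyme; nearly all actives have a fitted effect of over 50% in size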
# ALDH1A1 inh = inhibitors of human aldehyde dehydrogenase 1A1 | P00352 | Purified ALDH1A1, NADH fluorescence, propionaldehyde substrate | Potency, µM (highest dose often 75.3 µM), for inactives: at the highest dose activity, negative = inhibition, hits mostly inhibitors | 220,000 tested, 7.3% active | AID 1030; active = well fitted inhibition curve with a large enough effect, not every such curve was filed as active; inconclusive = small, poorly fitted or top-dose-only effect, or another doubt; inactive = no such curve, though single readings can be large or run the other way;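 note: potency is the fitted concentration of half-maximal effect; plate controls were no enzyme wells and a reference inhibitor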
# Sfp inh = blocks B. subtilis Sfp PPTase activity | Q9F4F7 | hit rate 3.5% among 310,000 | Potency, µM, without a hit: max response, negative = inhibition, most hits filed as inhibitors | AID 1490 | Biochemical Sfp PPTase activity, qHTS; active means well fitted inhibition curve with a large enough effect; inconclusive means small, poorly fitted or top-dose-only effect, or another doubt; inactive means no such curve, though single readings can be large or run the other way;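 further: the enzyme is Sfp with the accession as filed and its product quenches rhodamine fluorescence; potency means the concentration at half of the fitted maximal effect; 0% = enzyme reaction without inhibitor and -100% = no enzyme wells; top concentration of the series not given in the record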
#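 Fluorescence-quenching assay: 15 nM Sfp-PPTase preincubated 15 min at room temperature with compound, then 5 uM rhodamine-CoA and 12.5 uM BHQ-2-labelled YbbR peptide added. Fluorescence (ex 525/em 598 nm) read at start and after 30 min; difference gives rate.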
# * marks the source's active call; other numbers are inactive results; u = inconclusive; x = not tested or not shown; [ ] = dose if it differs, or a comment. Unless noted, calls come from the whole dose curve; as a rule, active = well fitted curve in the direction sought with a large enough effect; inconclusive = small, poorly fitted or top-dose-only effect, or another doubt; inactive = no such curve, though single readings can be large; an effect the other way counts as inactive or inconclusive.
# Labels used below – A = G9a inh; B = miR-21 FLuc; C = Lamin A splicing; D = JMJD2E inh; E = ALDH1A1 inh; F = Sfp inh
Nc1nccc(-c2cc(-c3ccc(Cl)cc3Cl)no2)n1
  A = x	B = -48%	C = x	D = u	E = x	F = 3%

O=C(c1cc(N2C(=O)C3C4CCC(C4)C3C2=O)ccc1Cl)N1CCN(c2ccccc2F)CC1 (configuration not stated)
  A = -15%	B = -10%	C = -5%	D = 5%	E = -2%	F = -7%

Fc1ccccc1/C=N/n1c(C2CCCCC2)n[nH]c1=S
  A = 25µM*	B = -8%	C = x	D = x	E = x	F = u

Fc1ccccc1/C=N/n1cnnc1
  A = 9%[59 µM]	B = -7%	C = u	D = -5%	E = 2%	F = 13%

O=[N+]([O-])c1ccccc1/C=N/n1c(C2CCCCC2)n[nH]c1=S
  A = 1.3µM*	B = -46%	C = 9%	D = -2%	E = 7.1µM*	F = 50µM*

O=[N+]([O-])c1ccccc1/C=N/n1c(C(F)(F)F)n[nH]c1=S
  A = 1.4µM*	B = 1%	C = x	D = u	E = u	F = 22µM*

Cc1cc(CNC(=O)COC(=O)Cn2[nH]c(=O)c3ccccc3c2=O)cc(C)c1O
  A = -47%	B = x	C = x	D = x	E = x	F = x

CCOC(=O)c1cccc(NC(=O)CC(c2ccc(F)cc2)N2Cc3ccccc3C2=O)c1 (configuration not stated)
  A = -10%[59 µM]	B = 1%	C = x	D = x	E = x	F = x

COc1cccc(C(=O)N2CCN(Cc3ccc(OC)cc3OC)CC2)c1
  A = 7.9µM*	B = 0%	C = x	D = x	E = x	F = -22%

COc1ccc(Br)cc1CN1CCN(C(=O)c2ccc(F)cc2)CC1
  A = 11µM*	B = -5%	C = 18%[46 µM]	D = u	E = u	F = u

COc1cccc(C(=O)N2CCN(Cc3cc(Br)ccc3OC)CC2)c1
  A = 22µM*	B = -9%	C = u	D = u	E = -15%	F = -28%

CCCNC(=O)OC[C@@H]1O[C@H](CCO/N=C(\C)CCN2CCc3nc(CC)c(CC)cc3C2)C=C[C@@H]1Oc1ccc(OC)cc1
  A = x	B = x	C = x	D = x	E = -7%[13.5 µM]	F = -3%

COc1ccc(N/C=C/C(=O)c2ccc(Cl)cc2)cc1
  A = 12%[59 µM]	B = -94%	C = 7%	D = -3%	E = 0%	F = 22%

COc1ccc(N/C=C2\C(=O)CCc3c2oc2cc(Cl)c(O)c(Cl)c32)cc1
  A = 40µM*	B = -1%	C = x	D = -21%	E = -4%	F = -18%

COc1ccccc1C(=O)Nc1nc2nc(C)c(Cc3ccccc3)c(=O)n2[nH]1
  A = u	B = 2%	C = x	D = x	E = x	F = x

NS(=O)(=O)c1ccc(NC(=S)NCC2CCCO2)cc1 (configuration not stated)
  A = 11µM*	B = -4%	C = 10%	D = 1%	E = 28µM*	F = 45µM*

S=C(NCC1CCCO1)Nc1ccc(Nc2ccccc2)cc1 (configuration not stated)
  A = u	B = 11%	C = 19%[46 µM]	D = 6%	E = u	F = 18%

O=C(CSc1ccccc1)Nc1ccc(S(=O)(=O)NCC2CCCO2)cc1 (configuration not stated)
  A = 7%[59 µM]	B = -2%	C = -8%	D = -6%	E = 22µM*	F = -3%

Cc1ccc(NS(=O)(=O)c2ccc(C(=O)NCC3CCCO3)cc2)cc1 (configuration not stated)
  A = 17%	B = 12%	C = -16%[46 µM]	D = 0%	E = 14%	F = 18%

CC(=O)Nc1ccc(S(=O)(=O)NNC(=S)NCC2CCCO2)cc1 (configuration not stated)
  A = 32µM*	B = 0%	C = x	D = x	E = x	F = 56µM*

# 3 structures out of the list, sorted by heavy-atom count, low to high:
# Labels used below – A = G9a inh; B = miR-21 FLuc; C = Lamin A splicing; D = JMJD2E inh; E = ALDH1A1 inh; F = Sfp inh
COc1ccc(N/C=C/C(=O)c2ccc(Cl)cc2)cc1
  A = 12%[59 µM]	B = -94%	C = 7%	D = -3%	E = 0%	F = 22%

COc1cccc(C(=O)N2CCN(Cc3cc(Br)ccc3OC)CC2)c1
  A = 22µM*	B = -9%	C = u	D = u	E = -15%	F = -28%

CCCNC(=O)OC[C@@H]1O[C@H](CCO/N=C(\C)CCN2CCc3nc(CC)c(CC)cc3C2)C=C[C@@H]1Oc1ccc(OC)cc1
  A = x	B = x	C = x	D = x	E = -7%[13.5 µM]	F = -3%

# Later entries.
# Labels used below – A = G9a inh; B = miR-21 FLuc; C = Lamin A splicing; D = JMJD2E inh; E = ALDH1A1 inh; F = Sfp inh
COCC(=O)Nc1ccc(S(=O)(=O)NCC2CCCO2)cc1 (configuration not stated)
  A = 25%	B = -1%	C = x	D = x	E = x	F = 11%

Cc1cc(C)cc(C(=O)N(C)[C@H](Cc2ccc(-c3ccccc3)cc2)C(=O)N[C@@H](Cc2c[nH]c3ccccc23)C(=O)O)c1
  A = x	B = x	C = x	D = -2%	E = 0%	F = 5%

CCOc1ccc(CCNC(=O)c2cc3c(s2)-c2c(C)cccc2OC3)cc1
  A = 0%[59 µM]	B = -1%	C = x	D = x	E = x	F = x

CCC(CC)C(=O)NCCN1CCN(C(=O)C(CC)CC)CC1
  A = 5.6µM*	B = 2%	C = -3%	D = 1%	E = 1%	F = 12%

CCC(CC)C(=O)NCCCN1CCOCC1
  A = -12%[59 µM]	B = 0%	C = -3%	D = 2%	E = 23%	F = -3%

COc1cccc(C(=O)COC(=O)c2cccs2)c1
  A = 73%	B = -35%	C = x	D = x	E = x	F = 12%

O=C(Nc1cccc(F)c1)N1CC[C@@]2(CCCNC2)C1
  A = -15%[12.7 µM]	B = x	C = x	D = x	E = 25µM*	F = u

O=C(Nc1cccc(F)c1)N1CCCC2(CCNCC2)C1
  A = 3%[12.7 µM]	B = x	C = x	D = x	E = 16%	F = -4%

C[C@H](NC(=O)c1nc[nH]c1C(=O)N1CCNCC1)C(=O)OCc1ccccc1
  A = -7%[2.33 µM]	B = x	C = x	D = x	E = x	F = x

O=C(CN1C(=O)NC2(CCCC2)C1=O)OCc1ccccc1F
  A = 22%[12.7 µM]	B = x	C = x	D = x	E = x	F = x

O=C(CN1CC(c2ccccc2)CC1=O)OCc1ccccc1F (configuration not stated)
  A = -44%[12.7 µM]	B = -8%	C = 2%	D = 1%	E = 8.9µM*	F = -18%

O=C1c2cccc3c2[C@@H](CCC3)CN1[C@@H]1CN2CCC1CC2
  A = -27%[12.7 µM]	B = x	C = x	D = x	E = x	F = 3%

O=[N+]([O-])c1cc(Cl)ccc1-c1nc(-c2ccncc2)no1
  A = -14%	B = -40%	C = x	D = -11%	E = 5%	F = 10%

O=[N+]([O-])c1cc(Cl)ccc1-c1nc(-c2ccccc2)no1
  A = 10µM*	B = -58%	C = -7%	D = 6%	E = -5%	F = -9%

Cc1nnc(N/N=C/c2ccc(Br)cc2)n1N
  A = -4%[0.501 µM]	B = -6%	C = x	D = x	E = x	F = u

COc1ccc(/C=N/Nc2nnc(C)n2N)cc1OC(C)=O
  A = 45µM*	B = -19%	C = x	D = x	E = x	F = -20%

COc1ccc(/C=N/Nc2nnc(C)n2N)cc1OC
  A = -28%	B = 11%	C = u	D = 14µM*	E = 5%	F = 19%

COc1cccc(/C=N/Nc2nnc(C)n2N)c1OCc1ccccc1Cl
  A = 22µM*	B = 6%	C = -12%	D = -10%	E = 5%	F = -7%

OC1(c2cccc(C(F)(F)F)c2)CCN(CCN2CCCCC2)CC1
  A = 4%	B = 4%	C = x	D = x	E = x	F = 19%

CCN(CC)CCNC(=O)c1ccc(-n2c(-c3ccccc3)cc3c2CCCC3)cc1
  A = -29%[59 µM]	B = 26%	C = -13%[46 µM]	D = x	E = x	F = x

O=C(CSc1nc2c([nH]c3ccccc32)c(=O)n1-c1ccccc1)N1CCOCC1
  A = -10%	B = 1%	C = -2%	D = -15%	E = 2.5µM*	F = 2%

Cc1cc(NC(=O)CSc2nc3c([nH]c4ccccc43)c(=O)n2-c2ccccc2)no1
  A = 14%[59 µM]	B = -3%	C = -1%[46 µM]	D = x	E = x	F = x

COc1cccc(-n2c(SCC(=O)Nc3cc(C)on3)nc3c([nH]c4ccccc43)c2=O)c1
  A = 40µM*	B = -11%	C = -7%	D = -5%	E = u	F = 25µM*

CSc1nc2c([nH]c3ccccc32)c(=O)n1-c1ccc(C)cc1
  A = 26%[59 µM]	B = 3%	C = -3%[46 µM]	D = x	E = x	F = x

COc1cccc(-n2c(SCC(N)=O)nc3c([nH]c4ccccc43)c2=O)c1
  A = -50%[12.7 µM]	B = 15%	C = u	D = u	E = u	F = 20µM*

Cc1ccc(-n2c(SCC(N)=O)nc3c([nH]c4ccccc43)c2=O)cc1
  A = -5%	B = -12%	C = -8%	D = 2%	E = 11µM*	F = 17%

CC(=O)N(c1ccc(C)cc1)c1nc(C)cc(C)c1C#N
  A = -2%[12.7 µM]	B = -2%	C = x	D = 3%	E = x	F = -20%

COc1cccc(-n2c(SCC(=O)N3CCc4ccccc43)nc3c([nH]c4ccccc43)c2=O)c1
  A = 4%[59 µM]	B = -2%	C = u	D = x	E = x	F = x

# Bioassay records (PubChem BioAssay)
